Source: patent US20200268852A1, “HEMATOPOIETIC RECOVERY FROM RADIATION INJURY” (priority 2013, published 2020)

Experiments:
mice = test: Survival after TBI with Degarelix plus LH analogue hCG; format: in vivo, mouse; conditions: Degarelix in addition to hCG, compared to Degarelix alone
Text: FIG. 12A, percent survival in mice given total body irradiated (TBI, black circle), mice given total body irradiated plus castration (TBI+castration, grey triangle) and mice given total body irradiated plus castration and treated with Degarelix (TBI+castration+LHRH-Ant, grey inverted triangle). FIG. 12B, ng/mL levels of testosterone, luteinizing hormone (LH) and follicle-stimulating hormone (FSH) at 2, 7 and/or 14 days after a lethal dose of total body irradiation among control (open bars), lethal total body irradiated (LTBI, black bars) and lethal total body irradiation treated with Degarelix (LTBI+LHRH-Ant, grey bars). FIG. 12C, percent survival in mice given total body irradiation (TBI) and treated with Degarelix plus PBS (grey squares), and in mice given total body irradiation (TBI) and treated with Degarelix and a LH analogue (human chorionic gonadotropin, hCG; black circles).
In yet another experiment, mice were irradiated and administered Degarelix and a luteinizing hormone analogue (human chorionic gonadotropin, hCG). Consistent with our hypothesis, hematopoietic stem cells express the LH receptor and LT-HSCs express the LH receptor even more highly.

androgen receptor (AR) = target: T1, androgen receptor (AR) (Mus musculus, UniProt P19091); test: ChIP of AR binding to the Dll4 promoter in C9 cells; format: cell-based; conditions: pre-treatment with MDV3100 before DTH
T1 construct: cTEC C9 were stimulated for 2 h with DTH, with or without pretreatment for 30 minutes with MDV3100; endogenous in cells; host or cells: cTEC cell line C9
T1 sequence (P19091 1-899): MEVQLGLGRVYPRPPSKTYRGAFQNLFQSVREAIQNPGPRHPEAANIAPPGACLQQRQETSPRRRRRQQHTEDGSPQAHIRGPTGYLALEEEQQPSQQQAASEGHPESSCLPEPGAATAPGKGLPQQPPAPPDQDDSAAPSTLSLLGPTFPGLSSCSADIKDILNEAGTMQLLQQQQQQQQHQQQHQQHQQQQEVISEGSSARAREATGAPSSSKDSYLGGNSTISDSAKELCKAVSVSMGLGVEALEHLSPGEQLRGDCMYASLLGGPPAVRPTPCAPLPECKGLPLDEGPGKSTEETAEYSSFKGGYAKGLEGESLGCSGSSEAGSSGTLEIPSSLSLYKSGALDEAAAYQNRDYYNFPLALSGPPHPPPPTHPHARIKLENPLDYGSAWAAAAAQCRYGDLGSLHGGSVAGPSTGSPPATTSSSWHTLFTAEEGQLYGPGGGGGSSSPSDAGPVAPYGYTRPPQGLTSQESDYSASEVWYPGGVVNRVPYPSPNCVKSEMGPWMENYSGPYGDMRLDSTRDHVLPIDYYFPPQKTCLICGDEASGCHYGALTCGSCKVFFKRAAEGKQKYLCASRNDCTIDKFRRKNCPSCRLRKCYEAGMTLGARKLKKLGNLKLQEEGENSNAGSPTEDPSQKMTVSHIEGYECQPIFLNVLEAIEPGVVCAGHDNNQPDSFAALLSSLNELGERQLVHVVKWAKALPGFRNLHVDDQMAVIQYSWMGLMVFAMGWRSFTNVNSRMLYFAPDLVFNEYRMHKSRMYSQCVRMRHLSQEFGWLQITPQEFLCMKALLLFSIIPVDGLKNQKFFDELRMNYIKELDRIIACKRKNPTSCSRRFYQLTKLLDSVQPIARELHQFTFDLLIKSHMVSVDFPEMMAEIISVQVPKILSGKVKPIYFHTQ

Row | AR interaction with Dll4 promoter region C (androgen receptor (AR)) | Compound | survival (mice)
1 | – | human chorionic gonadotropin [hCG] | significantly worse survival
2 | partially impeded | CNC(=O)c1ccc(N2C(=S)N(c3ccc(C#N)c(C(F)(F)F)c3)C(=O)C2(C)C)cc1F [MDV3100, Enzalutamide] | –
